Source: PubChem (several laboratories)
ARFGAP1 inhibitor – inhibitors of rat ARFGAP1 | Q62848 | Arfgap1-stimulated ARF1 GTP hydrolysis, GDP FP detection | inhibition, % at 16.5 µM | 0.26% of 360,000 active | AID 651572;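 active means inhibition above a per-plate limit, mean inhibition of low control wells plus 3 SD, cut at about 25% in these data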;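 further: 0% = DMSO wells with enzyme and 100% = wells lacking Arfgap1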
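system = rat Arfgap1 catalytic domain, aa 1-136 | technique = FP, GDP Alexa 633 tracer displaced from anti-GDP antibody, 620/688 nm | compound = one concentration, 16.5 µM, DMSO 1.26% | medium = HEPES-based buffer, pH 7.5 | timing = compound-enzyme preincubation 20 min, reaction 120 min, detection 60 min, 25 °C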
Yeast UUG start – modulators of yeast start codon fidelity, primary screen, whole organism, S. cerevisiae, single point, plate reader. S. cerevisiae UUG-firefly luciferase reporter, luminescence/redox ratio. activity score, % at 18.7 µM. actives 0.13% (n = 350,000);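 active = replicate mean at a twofold rise or more, about +100% in these data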;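 note: firefly luciferase made from a UUG start codon reports start codon fidelity; reporter light over untreated wells divided by growth signal over untreated wells; some hits fall short of that in this replicate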
CendR NRP1 mod – NRP-1/CendR interaction modulation; O14786; FAM-RPARPAR peptide binding to NRP-1, fluorescence polarization; inhibition, % at 25 µM; 0.85% of 360,000 active; AID 602438;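 active means inhibition or corrected inhibition above about 18%, plus a signal ratio from 0.5 to 1.5, limit read from the data, passing the limit was not always enough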
ASAP1 inh – ASAP1 ArfGAP inhibition. Q9ULH1. ASAP1-stimulated ARF1 GTP hydrolysis, GDP FP detection. inhibition, % at 16.5 µM. 0.19% of 360,000 active. AID 624377; in the data active means inhibition above about 25%;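 further: 0% = vehicle with enzyme and substrate and 100% = no enzyme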
MC4R ag barr – agonists of human melanocortin 4 receptor (MC4R) beta-arrestin; P32245; U2OS MC4R beta-arrestin complementation, luminescence; percent of melanotan II response, DMSO zero; activation, % at 8.9 µM; 0.98% of 360,000 active; AID 540308;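 active means activation above a per-plate cutoff, the mean activation of sample wells on that plate plus 3 SD, cut at about 8% in these data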
MC4R antagonist – human MC4R antagonism in cAMP assay | AID 540295 | inhibition, % at 6.5 µM | 0.48% of 360,000 active | MC4R-expressing cells, MTII-stimulated cAMP, LANCE TR-FRET | P32245;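 active means inhibition above its plate's cutoff, the mean of tested wells on that plate plus 3 SD, cut at about 29% in these data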;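 further: 0% = Melanotan II alone and 100% = Melanotan II plus saturating MCL0020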
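System – human MC4R-expressing U2OS cells · Also added – Melanotan II · Dosing – one concentration, 6.5 µM nominal · Timing – 30-min compound, 1-h challenge, 1-h detection, room temperature · Measured by – Eu-cAMP/anti-cAMP TR-FRET, emission 671 nm · Replicates – singlicate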
cAMP nonselect – counter-screen for MC4R antagonists: nonselective cAMP signaling inhibitors | shares compounds with MC4R antagonist | parental U2OS, forskolin cAMP, LANCE TR-FRET | inhibition, % at 6.5 µM | 26% of 1,600 active;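 active means mean inhibition over triplicates above the low-control well mean plus 3 SD, set per campaign, cut at about 13% in these data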;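 further: signal is single emission at 671 nm which falls as cellular cAMP rises; 0% = forskolin-stimulated wells and 100% = buffer without forskolin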
MC4R cAMP antag – human MC4R cAMP antagonism confirmation; shares compounds with MC4R antagonist; MC4R-expressing cells, MTII-stimulated cAMP, TR-FRET; inhibition, % at 6.5 µM; 27% of 1,600 active; in the data active means inhibition above about 29%;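 further: 0% = agonist stimulated wells alone and 100% = agonist stimulated wells plus saturating reference antagonist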
* = called active by the depositor; nt = not tested or not shown. In the library only some 2.3% were active in any assay of this set; here they are far more common.

nr	structure	ARFGAP1 inhibitor	Yeast UUG start	CendR NRP1 mod	ASAP1 inh	MC4R ag barr	MC4R antagonist	cAMP nonselect	MC4R cAMP antag
1	COc1ccc(-c2cc(C(=O)Nc3ccc(Br)cc3)no2)cc1	-7	0	2	4	2	29*	4	12
2	CN1CCc2c(sc(/N=C/c3c[nH]c4ccccc34)c2C#N)C1	13	-24	134	4	-2	-3	nt	nt
3	CN1CCc2c(sc(/N=C/c3cc(Cl)ccc3O)c2C#N)C1	-13	nt	-62	-15	-1	39*	1	4
4	C=CCN(C(=O)CNS(=O)(=O)c1ccccc1)C(C(=O)NCCOC)c1cccnc1 (centres undefined)	2	nt	-6	-2	1	29*	-1	-6
5	O=S(=O)(c1ccc(Br)c2nsnc12)N1CCOCC1	19	nt	1	0	-2	30*	11	25
6	Cc1ccc(S(=O)(=O)N2CCOCC2)c2nsnc12	12	-13	-14	-7	0	-1	nt	nt
7	CCOC(=O)c1ccc(N/C=C/C(=O)C(C)(C)C)cc1	12	nt	2	0	2	30*	0	0
8	C[C@H]1CN([C@@H](C)CO)C(=O)c2cccc(NC(=O)Nc3ccccc3)c2O[C@H]1CN(C)Cc1ccncc1	nt	15	nt	nt	nt	nt	nt	nt
9	Cc1cc([N+](=O)[O-])nn1Cc1noc(C(=O)NCc2ccc3c(c2)OCO3)n1	1	-17	0	3	-1	16	nt	nt
10	O=C(NCc1ccc2c(c1)OCO2)c1nc(Cn2ccc([N+](=O)[O-])n2)no1	7	-15	5	-9	-1	31*	-2	-7
11	CC(=O)NCC(c1cccs1)S(=O)(=O)c1ccc(F)cc1 (centres undefined)	7	-12	10	4	1	33*	5	6
12	CCOC(=O)CSc1nc2c(sc(=S)n2-c2ccc(CC)cc2)c(=O)[nH]1	0	-8	-6	-8	0	31*	3	-4

Results in MC4R ag barr, cAMP nonselect and ARFGAP1 inhibitor (3 entries from above):
entry	canonical_smiles	MC4R ag barr	cAMP nonselect	ARFGAP1 inhibitor
2	CN1CCc2c(sc(/N=C/c3c[nH]c4ccccc34)c2C#N)C1	-2	nt	13
5	O=S(=O)(c1ccc(Br)c2nsnc12)N1CCOCC1	-2	11	19
4	C=CCN(C(=O)CNS(=O)(=O)c1ccccc1)C(C(=O)NCCOC)c1cccnc1 (centres undefined)	1	-1	2

(cont.)
nr	structure	ARFGAP1 inhibitor	Yeast UUG start	CendR NRP1 mod	ASAP1 inh	MC4R ag barr	MC4R antagonist	cAMP nonselect	MC4R cAMP antag
13	COc1ccc(NC(=O)N[C@H]2C=C[C@H](CC(=O)NC3CCCCC3)O[C@@H]2CO)cc1	nt	1	nt	nt	nt	nt	nt	nt
14	COc1ccccc1NC(=O)c1sc(NC(=O)c2ccco2)c(C#N)c1C	9	nt	4	4	-1	18	nt	nt
15	Cc1ccccc1OCC(=O)Nc1sc(C(=O)Nc2cccc(C)c2C)c(C)c1C#N	nt	-42	-6	nt	0	105*	2	-3
16	COCC(=O)Nc1ccc2c(c1)[C@H]1C[C@H](CC(=O)N3CCN(C)CC3)O[C@H](CO)[C@H]1O2	nt	-14	nt	nt	nt	nt	nt	nt
17	CN1C(=O)c2cc(NC(=O)c3cccc(F)c3)ccc2OC[C@@H]2O[C@H](CC(=O)N3CCc4ccccc4C3)CC[C@H]21	nt	-16	nt	nt	nt	nt	nt	nt
18	CCOc1ncccc1C(=O)Nc1nc(C(C)(C)C)cs1	-2	-9	1	-2	8.7*	34*	1	-2
19	COc1ccc(-c2nn(-c3ccccc3)cc2C(=O)Nc2ccc(C(=O)O)cc2)cc1OC	-11	-3	-11	-3	0	21	nt	nt
20	Cc1ccc(-c2nn(-c3ccccc3)cc2C(=O)Nc2cccc(S(=O)(=O)NC3=NCCC3)c2)cc1	-8	12	-11	6	-1	8	nt	nt
21	Cc1ccc(-c2nn(-c3ccccc3)cc2C(=O)Nc2ccc(C(=O)O)cc2)cc1	-3	nt	-9	10	1	33*	2	-5
22	O=C(Nc1cccc(S(=O)(=O)NC2=NCCC2)c1)c1cn(-c2ccccc2)nc1-c1ccc(F)cc1	7	-8	4	11	-3	29*	4	11
23	Cc1ccccc1S(=O)(=O)N1C[C@@H](O)COC[C@H]2O[C@@H](CC(=O)NCc3ccccc3Cl)CC[C@@H]21	nt	13	nt	nt	nt	nt	nt	nt
24	O=C1c2ccccc2C(=O)N1SC1CCCCC1	4	-7	23	-9	3	29*	8	25
